Broadly, the Kd is the free concentration of one partner at which half of the binding sites on the other are occupied at equilibrium, for simple one-to-one binding.

The chains behind the UniProt entries cited, without tags or fusion partners.
UniProt P23975, whole entry: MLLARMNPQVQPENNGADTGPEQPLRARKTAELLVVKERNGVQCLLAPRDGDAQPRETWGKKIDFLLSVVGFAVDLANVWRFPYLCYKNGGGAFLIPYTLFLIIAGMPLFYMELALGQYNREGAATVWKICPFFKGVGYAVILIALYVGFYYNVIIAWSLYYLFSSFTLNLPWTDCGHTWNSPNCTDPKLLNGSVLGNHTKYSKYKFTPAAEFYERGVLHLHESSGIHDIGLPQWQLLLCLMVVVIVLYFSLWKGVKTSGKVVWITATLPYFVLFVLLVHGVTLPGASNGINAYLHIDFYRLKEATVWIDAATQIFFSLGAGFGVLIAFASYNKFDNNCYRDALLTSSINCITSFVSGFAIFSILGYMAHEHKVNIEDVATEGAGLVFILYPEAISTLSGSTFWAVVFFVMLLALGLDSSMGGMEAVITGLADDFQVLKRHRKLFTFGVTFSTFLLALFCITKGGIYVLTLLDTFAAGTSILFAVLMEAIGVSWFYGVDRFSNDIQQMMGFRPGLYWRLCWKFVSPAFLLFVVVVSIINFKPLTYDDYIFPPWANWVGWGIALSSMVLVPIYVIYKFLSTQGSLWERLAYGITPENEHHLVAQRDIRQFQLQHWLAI

The values below come from US20080200556A1, “Amine Compounds And Inhibiting Neurotrasmitter Reuptake” (MAYO FOUNDATION FOR MEDICAL EDUCATION AND RESEARCH, priority 2004, published 2008).

In assay [1] the target is T1, human norepinephrine transporter (hNET) (Homo sapiens, UniProt P23975).
In assay [2] the target is T1, human norepinephrine transporter (hNET). The assay can be described thus: biochemical.

Read-outs that look alike come from different tables or passages of the source.

For `CNCC(c1ccc2ccccc2c1)C(O)c1ccccc1` (racemic) [Compound A, (2RS,3RS)-N-methyl-3-hydroxy-2-(2′-naphthyl)-3-phenylpropylamine, reference compound], in assay [1] (read-out: Kd (nM) hNET), the Kd stood at 0.3 nM.
Take `CN(C)CC(c1ccc2ccccc2c1)C(O)C1CCCCC1` (racemic) [PRC025, (2RS,3SR)-N,N-dimethyl-3-cyclohexyl-3-hydroxy-2-(2′-naphthyl)propylamine]: the “binding to hNET (in words)” value in assay [1] is recorded as “strong binding”. Also, in assay [2], binding was characterised by a dissociation constant (Kd) of 12.5 nM.
